For one experiment, the target named is human A2AAR (Homo sapiens, UniProt P29274). Nature of the experiment: Radioligand affinity at HEK or CHO-A2A. Type of experiment: binding. The following applies: read-out: KD ± SEM, saturation, tested as the radiolabelled form.
The target in the next experiment is human A2BAR (Homo sapiens, UniProt P29275). Briefly: Radioligand affinity at HEK or CHO-A2B. It is filed as binding. The following applies: tested as the radiolabelled form.
The next experiment addresses HA-tagged human A2AAR (Homo sapiens, UniProt P29274). Nature of the experiment: Radioligand affinity at CHO-HA-A2A. It is filed as binding. The note with it: read-out: KD ± SEM, homologous competition, tested as the radiolabelled form.
Experiment [1] relates to CHO-K1 cell membranes (non-transfected). Nature of the experiment: Radioligand affinity (saturation or homologous competition) at CHO cells. The following applies: tested as the radiolabelled form.
Experiment [2] deals with A2A and A2BARs in intact primary human lymphocytes. Nature of the experiment: Radioligand affinity at intact primary human T-lymphocytes, unstimulated. Type of experiment: binding. The note with it: T-Lymphocytes unstimulated (A2A > A2B), intact cells, homologous competition, tested as the radiolabelled form.
The target is the same in experiment [3]. Nature of the experiment: Radioligand affinity at intact primary human T-lymphocytes, stimulated with phytohemagglutinin. Type of experiment: binding. The note with it: read-out: KD ± SEM; T-Lymphocytes stimulated (A2A > A2B); intact cells; homologous competition; tested as the radiolabelled form.

Sequences of proteins named here, by UniProt entry; tags and fusion partners are left off.
UniProt P29275, whole entry: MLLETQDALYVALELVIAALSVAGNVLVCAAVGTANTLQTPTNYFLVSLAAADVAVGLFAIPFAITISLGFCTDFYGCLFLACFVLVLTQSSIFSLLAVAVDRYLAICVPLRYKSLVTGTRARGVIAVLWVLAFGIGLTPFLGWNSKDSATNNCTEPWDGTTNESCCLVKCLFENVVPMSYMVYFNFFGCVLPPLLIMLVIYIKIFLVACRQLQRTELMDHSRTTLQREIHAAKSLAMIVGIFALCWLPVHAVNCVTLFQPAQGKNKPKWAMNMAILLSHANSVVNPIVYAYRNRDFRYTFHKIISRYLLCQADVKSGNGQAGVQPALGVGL

On to `C#CCn1c(=O)c2c(nc(C=Cc3cccc(OC)c3)n2C)n(CCCO)c1=O` [MSX-2, 3-(3-hydroxypropyl)-7-methyl-8-(m-methoxystyryl)-1-propargylxanthine], for which the Kd on human A2AAR came to 7.29 nM; at HA-tagged human A2AAR, 22 nM; in experiment [2] (read-out: KD ± SEM), 3.57 nM; in experiment [3], 2.58 nM. The “KD ± SEM” value on human A2BAR was “No binding”; in experiment [1], “No binding”; in experiment [2] it was “High affinity binding”.

(Values after publication PMC5862601 (Oncotarget, 2018).)
